Measured values: patent US20250235486A1, “Method of Producing Insulin-Producing Cells” (Monash University, priority 2022, published 2025)

Tested on: Human pancreatic ductal epithelial cells
Assay: qRT-PCR after 2- and 7-day EZH2 inhibitor stimulation of human pancreatic ductal epithelial cells
Type: cell-based
Details: EPZ6438 1 μM
[1] = 2 days, GSK-126 10 μM, Triptolide 20 nM

CCN(c1cc(-c2ccc(CN3CCOCC3)cc2)cc(C(=O)NCc2c(C)cc(C)[nH]c2=O)c1C)C1CCOCC1 [EPZ-6438, N-[(1,2-Dihydro-4,6-dimethyl-2-oxo-3-pyridinyl)methyl]-5-[ethyl(tetrahydro-2H-pyran-4-yl)amino]-4-methyl-4′-(4-morpholinylmethyl)[1,1′-biphenyl]-3-carboxamide]
CK19 expression [1]: increase | NGN3 mRNA levels [1]: significantly elevated | insulin transcripts, mature mRNA (INS) [1]: elevations | insulin transcripts, mature mRNA (INS) (7 days, GSK-126 10 μM, Triptolide 20 nM): maintained | CK19 expression levels (day 7): decreased significantly
